High-throughput results as filed in PubChem BioAssay.
This is a sample that favours compounds with a hit; in the whole collection about 2.9% have one here.
TSG101-PTAP inh = blocks PTAP/TSG101 interaction to inhibit HIV-1 budding | Potency, µM (series often up to 115 µM), for the others: at the top dose activity change, negative = inhibition, hits mostly inhibitors | Fluorescence polarization, FITC-PTAP peptide / Tsg101 binding | 340,000 tested, under 10 active; active = well fitted inhibition curve with a large enough effect in the main read-out, with a control signal flat, not every such curve was filed as active; inconclusive = small, poorly fitted or top-dose-only effect, or effect the other way, or a change in a side signal; inactive = no such curve, though single readings can be large or run the other way; note: potency is the fitted concentration of half-maximal effect; % of control where 0% means no effect
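FP read-out: FITC-PTAP peptide, 50 nM final, binding Tsg101 binding domain, 10 uM final; 20 min, r.t.; 10 mM HEPES pH 7.5, 0.15 M NaCl, 0.01% Tween 20, 3 mM EDTA, 0.1 mM TCEP.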
Rango-impB inh = prevents formation of the Rango-importin beta complex; Q14974; Rango CFP/YFP FRET sensor + importin beta, 45 min; Potency, µM (doses to about 92.2 µM), inactives show at the top dose inhibition of complex formation; actives 0.031% (n = 340,000); AID 540263;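 note: potency is the fitted concentration of half-maximal effect; 0% = DMSO wells and 100% = buffer wells lacking importin beta; nearly all actives have a fitted effect of over 15% in size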
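Inhibition scored from the CFP 486 nm/YFP 530 nm FRET ratio 45 min after adding 0.125 microM importin beta to 50 nM Rango biosensor preincubated 5 min with compound (room temperature, PBS with DTT, Tween-20, BSA). No-importin wells as positive control.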
Rango dissoc inh = prevents RanGTP from dissociating the Rango-importin beta complex; O95149+P62826; Biochemical FRET Rango-importin beta, RanGTP-induced dissociation; Potency, µM (titrated, usually from 46.1 µM), without a hit: top-dose activity change, negative = inhibition; actives 0.071% (n = 340,000); note: potency is the fitted concentration of half-maximal effect; % of control where 0% means no effect; nearly all actives have a fitted effect of over 45% in size
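Recombinant Rango FRET biosensor (EYFP–snurportin 1 IBB–cerulean CFP10) at 0.1 uM premixed with 0.25 uM importin beta in PBS, 1 mM DTT, 0.02% Tween-20, 0.1% BSA. Compound added 5 min; RanGTP-RCC1 (0.6 uM Ran, 2 mM GTP, 0.2 uM RCC1) then triggers release, read at 45 min.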
D3 antag = D3 dopamine receptor (human) antagonism | actives 2.5% (n = 360,000) | D3R cells, DiscoveRx beta-arrestin luminescence, antagonist mode; hits give low values | P35462 | max response, negative = inhibition, % | AID 652054; in the data active = max response below about -50%; inconclusive = no clear call, values can overlap the other calls; note: % is set by controls: 0 for no effect and ±100 for the full control effect
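Cells plated overnight at 1500 cells/well, then exposed to library compounds with dopamine controls for 90 minutes at 37 degrees C. DiscoveRx reagent added for 30–60 minutes at room temperature; luminescence read, quantitative HTS format.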
DRD3 agonist = D3 dopamine receptor (human) agonism | max activation, % | P35462 | D3R DiscoveRx beta-arrestin cells, luminescence, 90 min | actives 0.58% (n = 410,000) | AID 652048; in the data active = max activation above about 30%; note: 0% is about no effect
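Agonist-mode cell screen: cells plated at 1500/well and incubated overnight at 37 °C, then exposed to library compounds for 90 min at 37 °C. Detection reagent was added for 30–60 min at room temperature, and luminescence was read.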
MmCpn inh = M. maripaludis TRiC chaperonin inhibition | purified Mm-Cpn ATPase, ADP Transcreener TR-FRET | Potency, µM (highest dose often 76.9 µM), for the others: at the highest dose activity, negative = inhibition, usual class: inhibitors | actives 0.031% (n = 330,000); active = well fitted inhibition curve with a large enough effect; inconclusive = small, poorly fitted or top-dose-only effect; note: potency is the fitted concentration of half-maximal effect; % is set by controls: 0 for no effect and ±100 for the full control effect; nearly all actives have a fitted effect of over 80% in size
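Measured: ADP formation by purified Mm-CPN. Conditions: 25 nM protein, 10 uM ATP, Tris pH 7.4 with Mg2+, K+ and DTT, 37°C for 30 min. Detection: Transcreener HTRF after 30 min at room temperature.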
* = called active by the depositor; ? = inconclusive; . = not tested or not shown. Unless noted, calls come from the whole dose curve.

The line under a structure holds: TSG101-PTAP inh	Rango-impB inh	Rango dissoc inh	D3 antag	DRD3 agonist	MmCpn inh
- Cc1ccc(C(=O)Cc2nc3ccccc3[nH]2)cc1
→ -2%	-2%	-18%	-51*	-12	-1%
- CN(C)C(=S)NC(C)(C)C
→ 0%	1%	-1%	-13	-8	45µM*
- Cc1ccc(CNC(=S)N(C)C)cc1
→ 0%	1%	-2%	-17	-6	-2%
- CN1CCN(CC(=O)N2CCn3c4c(c5cc(C6CCCCC6)ccc53)CCCC42)CC1 (stereo unspecified)
→ -3%	?	-5%	-65*	3	-2%
- Cc1ccc2c(c1)c1c3n2CCN(C(=O)CN2CCN(C)CC2)C3CCC1 (stereo unspecified)
→ -1%	5%	-8%	?	9	-3%
- Cn1[nH]c(C(F)(F)F)c(C=Nc2ccc(Cl)cc2)c1=O
→ -2%	6%	7%	-63*	-4	-2%
- CN(C)S(=O)(=O)c1ccc(N=Cc2c(C(F)(F)F)[nH][nH]c2=O)cc1
→ -5%	2%	1%	-13	0	1%
- CN(C)CCNC(=O)c1ccc2c(=O)n(Cc3ccc(Cl)cc3)c(=S)[nH]c2c1
→ -4%	2%	-1%	-58*	1	-1%
- O=C(NCC1CCCCC1)c1ccc(Br)o1
→ -2%	1%	6%	9	-1	1%
- COc1ccccc1N1CCN(C(=O)CCNS(=O)(=O)c2ccc3c(c2)CCN3C(=O)C2CC2)CC1
→ .	.	.	.	-6	.
- O=C(COC(=O)c1ccccc1C(=O)c1ccc(Cl)c([N+](=O)[O-])c1)NC1CC1
→ 0%	-4%	-11%	-66*	-18	-20%
- O=C(COC(=O)c1cc([N+](=O)[O-])ccc1Cl)NC1CCCC1
→ -2%	2%	5%	2	-6	0%
- CNC(=O)COC(=O)c1ccccc1C(=O)c1ccc(Cl)c([N+](=O)[O-])c1
→ -2%	5%	6%	-61*	0	2%
- O=C(COc1ccc(/C=N/NC(=O)c2ccccc2O)cc1)Nc1ccc([N+](=O)[O-])cc1
→ -4%	2%	8%	10	41*	1%
- O=C(C1=C(O)C(=O)N(CCN2CCOCC2)C1c1ccccc1)c1cccs1 (stereo unspecified)
→ -5%	0%	4%	-52*	-1	.

The list continues.
Letters – A = TSG101-PTAP inh; B = Rango-impB inh; C = Rango dissoc inh; D = D3 antag; E = DRD3 agonist; F = MmCpn inh
COc1ccc(C(=O)/C(Br)=C\C(=O)O)cc1
  A: . | B: . | C: . | D: . | E: 18 | F: .
O=[N+]([O-])c1cc(Br)c(O)c(/C=N/Nc2nnnn2-c2cccc3ccccc23)c1
  A: -6% | B: ? | C: ? | D: -85* | E: -53 | F: 3%
Cc1cc(C)c2c(=O)cc(C(=O)NCCc3ccc(S(N)(=O)=O)cc3)oc2c1
  A: . | B: . | C: . | D: . | E: 3 | F: .
N#CCCNCC1(c2ccccc2)CCCC1
  A: 0% | B: 2% | C: -11% | D: -54* | E: 4 | F: 1%
Cc1cc(N2CCN(c3ncccn3)CC2)nc2c(C)cccc12
  A: 1% | B: 3% | C: 0% | D: 18 | E: 36* | F: -5%
CC(=O)OCC(=O)[C@@]1(O)[C@H](C)C[C@H]2[C@@H]3C[C@H](F)C4=CC(=O)C=C[C@]4(C)[C@H]3[C@@H](O)C[C@@]21C
  A: . | B: . | C: . | D: . | E: 2 | F: .
OC(CN1CCN(c2ccccc2)CC1)c1ccc2c(c1)CCN2 (stereo unspecified)
  A: 0% | B: -10% | C: -2% | D: -28 | E: 44* | F: -1%
Oc1ccc(Cl)cc1CNCc1ccc(F)cc1
  A: . | B: 4% | C: 3% | D: -81* | E: -43 | F: -1%
CCN1/C(=C(\O)c2ccccc2)C(=O)c2ccccc2S1(=O)=O
  A: -2% | B: 0% | C: -7% | D: -56* | E: -5 | F: 1%
N#C/C(=C\c1ccc[nH]1)C(=O)Nc1ccccc1F
  A: -1% | B: -1% | C: 6% | D: -21 | E: -10 | F: -2%
N#C/C(=C\c1ccc[nH]1)C(=O)Nc1ccccc1Cl
  A: -14% | B: 16µM* | C: 1% | D: -10 | E: 0 | F: 0%
COc1ccc(C(=O)Nc2cccc(OCc3cc(=O)n4c5c(sc4n3)CCCC5)c2)cc1OC
  A: . | B: . | C: . | D: . | E: 3 | F: .

Random excerpt: four entries already listed
Letters – A = TSG101-PTAP inh; B = Rango-impB inh; C = Rango dissoc inh; D = D3 antag; E = DRD3 agonist; F = MmCpn inh
Cc1cc(N2CCN(c3ncccn3)CC2)nc2c(C)cccc12
  A: 1% | B: 3% | C: 0% | D: 18 | E: 36* | F: -5%
O=[N+]([O-])c1cc(Br)c(O)c(/C=N/Nc2nnnn2-c2cccc3ccccc23)c1
  A: -6% | B: ? | C: ? | D: -85* | E: -53 | F: 3%
Oc1ccc(Cl)cc1CNCc1ccc(F)cc1
  A: . | B: 4% | C: 3% | D: -81* | E: -43 | F: -1%
CC(=O)OCC(=O)[C@@]1(O)[C@H](C)C[C@H]2[C@@H]3C[C@H](F)C4=CC(=O)C=C[C@]4(C)[C@H]3[C@@H](O)C[C@@]21C
  A: . | B: . | C: . | D: . | E: 2 | F: .
